Test results taken from ChEMBL document CHEMBL1121613.

By UniProt entry, the sequences of proteins in these tests, tags left out. Where a name states a change or a piece, a line headed by the entry shows the natural chain unless it says otherwise.
UniProt P35348: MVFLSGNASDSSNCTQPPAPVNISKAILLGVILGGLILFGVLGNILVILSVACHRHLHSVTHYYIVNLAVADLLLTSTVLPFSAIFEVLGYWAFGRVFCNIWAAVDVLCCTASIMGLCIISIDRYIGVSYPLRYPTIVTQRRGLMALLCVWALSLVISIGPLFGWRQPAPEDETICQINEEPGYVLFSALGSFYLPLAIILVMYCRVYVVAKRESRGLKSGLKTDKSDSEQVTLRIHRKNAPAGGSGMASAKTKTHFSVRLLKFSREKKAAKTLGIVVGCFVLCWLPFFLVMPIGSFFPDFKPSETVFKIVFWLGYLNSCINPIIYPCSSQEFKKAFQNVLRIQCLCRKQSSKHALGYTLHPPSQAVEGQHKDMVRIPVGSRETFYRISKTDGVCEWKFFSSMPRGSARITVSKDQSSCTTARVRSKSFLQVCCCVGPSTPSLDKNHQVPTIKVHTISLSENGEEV
UniProt P08913: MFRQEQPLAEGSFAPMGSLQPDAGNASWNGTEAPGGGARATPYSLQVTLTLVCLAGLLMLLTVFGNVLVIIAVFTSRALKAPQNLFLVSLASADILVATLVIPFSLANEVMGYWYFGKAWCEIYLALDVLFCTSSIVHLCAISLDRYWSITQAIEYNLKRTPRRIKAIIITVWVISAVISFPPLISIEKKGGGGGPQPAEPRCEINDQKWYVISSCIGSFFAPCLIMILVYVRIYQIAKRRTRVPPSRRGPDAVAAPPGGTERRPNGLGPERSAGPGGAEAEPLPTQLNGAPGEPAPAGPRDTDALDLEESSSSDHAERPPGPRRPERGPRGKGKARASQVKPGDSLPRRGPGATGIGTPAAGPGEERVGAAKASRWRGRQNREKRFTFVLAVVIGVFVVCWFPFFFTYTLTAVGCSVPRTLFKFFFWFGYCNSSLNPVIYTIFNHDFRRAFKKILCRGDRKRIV
UniProt P18825: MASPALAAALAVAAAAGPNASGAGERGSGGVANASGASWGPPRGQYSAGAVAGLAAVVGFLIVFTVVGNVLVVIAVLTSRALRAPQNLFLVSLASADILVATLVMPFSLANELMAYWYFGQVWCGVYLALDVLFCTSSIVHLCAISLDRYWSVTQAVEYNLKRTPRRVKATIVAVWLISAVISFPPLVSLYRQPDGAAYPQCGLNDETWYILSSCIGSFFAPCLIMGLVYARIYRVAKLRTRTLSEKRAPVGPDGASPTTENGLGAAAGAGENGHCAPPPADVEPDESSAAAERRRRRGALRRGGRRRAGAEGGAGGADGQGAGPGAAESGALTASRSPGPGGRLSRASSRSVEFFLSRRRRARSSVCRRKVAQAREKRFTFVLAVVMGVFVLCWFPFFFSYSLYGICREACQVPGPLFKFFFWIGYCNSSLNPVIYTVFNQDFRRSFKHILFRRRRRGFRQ
UniProt P25100: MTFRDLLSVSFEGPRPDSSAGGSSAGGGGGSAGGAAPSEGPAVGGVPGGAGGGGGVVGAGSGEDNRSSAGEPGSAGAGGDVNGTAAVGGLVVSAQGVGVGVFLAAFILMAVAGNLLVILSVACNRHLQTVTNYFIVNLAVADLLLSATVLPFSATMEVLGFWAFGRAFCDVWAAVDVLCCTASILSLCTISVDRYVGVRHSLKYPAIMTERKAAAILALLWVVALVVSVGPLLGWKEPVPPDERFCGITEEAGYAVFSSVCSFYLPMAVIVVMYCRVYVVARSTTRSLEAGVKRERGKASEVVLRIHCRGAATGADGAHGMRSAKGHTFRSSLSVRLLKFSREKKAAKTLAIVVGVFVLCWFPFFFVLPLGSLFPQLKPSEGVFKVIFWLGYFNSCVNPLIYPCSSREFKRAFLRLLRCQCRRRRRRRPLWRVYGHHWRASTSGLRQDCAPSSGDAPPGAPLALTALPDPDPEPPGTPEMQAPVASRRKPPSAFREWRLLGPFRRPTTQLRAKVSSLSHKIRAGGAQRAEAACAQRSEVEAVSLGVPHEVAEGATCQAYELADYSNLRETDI
UniProt P35368: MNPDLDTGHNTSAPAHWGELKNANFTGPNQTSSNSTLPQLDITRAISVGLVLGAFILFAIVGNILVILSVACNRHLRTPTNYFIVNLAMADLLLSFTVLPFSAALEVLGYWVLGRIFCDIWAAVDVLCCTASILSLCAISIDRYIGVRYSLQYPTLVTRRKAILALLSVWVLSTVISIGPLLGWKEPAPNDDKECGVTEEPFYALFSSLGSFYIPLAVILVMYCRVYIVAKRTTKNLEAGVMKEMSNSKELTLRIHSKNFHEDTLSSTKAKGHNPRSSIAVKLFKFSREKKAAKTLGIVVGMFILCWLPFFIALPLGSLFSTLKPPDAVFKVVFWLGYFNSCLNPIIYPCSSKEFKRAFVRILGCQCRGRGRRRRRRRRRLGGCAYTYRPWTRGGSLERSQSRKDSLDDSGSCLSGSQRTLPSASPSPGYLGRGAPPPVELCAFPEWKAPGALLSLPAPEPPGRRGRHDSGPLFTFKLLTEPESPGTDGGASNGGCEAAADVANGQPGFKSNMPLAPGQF
UniProt P18089: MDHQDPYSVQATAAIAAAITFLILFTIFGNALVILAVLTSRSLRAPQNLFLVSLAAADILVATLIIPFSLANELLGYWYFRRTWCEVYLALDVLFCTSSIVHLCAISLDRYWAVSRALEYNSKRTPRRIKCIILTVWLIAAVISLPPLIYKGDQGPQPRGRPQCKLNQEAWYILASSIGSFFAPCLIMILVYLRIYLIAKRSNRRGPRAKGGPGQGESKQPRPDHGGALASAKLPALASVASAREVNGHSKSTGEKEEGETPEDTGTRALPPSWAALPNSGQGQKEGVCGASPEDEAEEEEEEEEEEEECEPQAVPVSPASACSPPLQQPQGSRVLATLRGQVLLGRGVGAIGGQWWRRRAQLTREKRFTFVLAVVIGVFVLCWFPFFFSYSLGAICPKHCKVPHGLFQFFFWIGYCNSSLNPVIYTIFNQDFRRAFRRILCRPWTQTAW

Biological target: Adrenergic receptor alpha (Homo sapiens) (UniProt P35348+P08913+P18825+P25100+P35368+P18089)
Test: Blocking activity towards Alpha adrenergic receptor of rabbit aortic tissue preparation was determined
Settings: Oryctolagus cuniculus; target entry is the homologue from another species

Structure (SMILES) | -Log KB
C[C@@H]1CN=C(Cc2ccccc2)N1 | 4.77
C[C@H]1CN=C(Cc2ccccc2)N1 | 4.85
